Measurements: patent publication US11801256B2, “Antidepressant-psilocybin co-treatment to assist psychotherapy” (Universitätsspital Basel, priority 2021, dated 2023)

Tests used:
HTR2A = assay: Gene expression in blood (quantitative real-time PCR); assay type: in vivo, human; settings: end of the two-week pretreatment period, compared with placebo pretreatment
SLC6A4 = assay: as above; assay type: in vivo, human; settings: end of the two-week pretreatment period, compared with placebo pretreatment

## CN(C)CCC[C@@]1(c2ccc(F)cc2)OCc2cc(C#N)ccc21 [Escitalopram, escitalopram]
HTR2A
  expression of the HRT2A gene: did not alter
SLC6A4
  expression of the SLC6A4 gene: did not alter
